Experimental data: patent US20230302150A1, “ANTIBODY-TLR AGONIST CONJUGATES, METHODS AND USES THEREOF” (Ambrx, Inc., priority 2020, published 2023)

By UniProt entry, the sequences of proteins in these tests, tags left out. Residues count along the entry.
UniProt Q9NYK1, 27-1049 limits assumed: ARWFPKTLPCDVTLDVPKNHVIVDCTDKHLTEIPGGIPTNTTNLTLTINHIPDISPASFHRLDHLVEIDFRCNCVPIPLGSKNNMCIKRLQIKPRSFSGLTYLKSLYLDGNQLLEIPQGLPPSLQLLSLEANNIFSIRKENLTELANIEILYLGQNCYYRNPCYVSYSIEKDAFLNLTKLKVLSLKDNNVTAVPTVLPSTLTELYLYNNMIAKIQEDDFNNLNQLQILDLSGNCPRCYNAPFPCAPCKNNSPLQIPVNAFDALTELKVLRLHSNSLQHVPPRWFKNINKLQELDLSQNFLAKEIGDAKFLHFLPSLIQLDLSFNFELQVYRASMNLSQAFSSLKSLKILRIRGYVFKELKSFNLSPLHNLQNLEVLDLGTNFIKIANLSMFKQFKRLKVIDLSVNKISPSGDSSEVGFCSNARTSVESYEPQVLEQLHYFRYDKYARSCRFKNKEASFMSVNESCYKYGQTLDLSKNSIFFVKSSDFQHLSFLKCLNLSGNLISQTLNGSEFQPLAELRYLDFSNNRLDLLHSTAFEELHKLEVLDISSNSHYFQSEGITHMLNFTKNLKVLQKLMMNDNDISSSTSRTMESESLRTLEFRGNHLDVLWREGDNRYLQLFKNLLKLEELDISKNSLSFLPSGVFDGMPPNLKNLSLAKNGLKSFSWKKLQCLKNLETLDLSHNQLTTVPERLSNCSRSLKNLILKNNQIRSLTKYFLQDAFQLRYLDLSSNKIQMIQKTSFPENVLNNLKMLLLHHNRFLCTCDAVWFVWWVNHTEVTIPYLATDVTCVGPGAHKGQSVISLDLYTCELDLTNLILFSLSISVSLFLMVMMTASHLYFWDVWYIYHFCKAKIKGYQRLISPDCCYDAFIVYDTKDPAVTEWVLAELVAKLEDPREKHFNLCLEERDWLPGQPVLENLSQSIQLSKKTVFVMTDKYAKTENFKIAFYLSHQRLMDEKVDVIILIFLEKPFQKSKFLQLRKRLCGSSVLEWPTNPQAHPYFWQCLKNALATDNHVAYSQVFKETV

Target: hTLR7 (Homo sapiens, UniProt Q9NYK1)
Assay: HEK-Blue hTLR7 reporter assay (NF-kB-induced SEAP, Quanti-Blue)
Assay type: cell-based
Settings: Table 19, TLR7, drug-linkers with PEG shielding

CCCCOc1nc(N)c2[nH]c(=O)n(Cc3ccc(CN4CCC(CCNC(=O)[C@H](CCCCNC(=O)CON)NC(=O)CCOCCOCCOCCOC)CC4)cc3)c2n1
EC50: 303 nM
